This is an account of results in PMC3565011 (Xenobiotica; the fate of foreign compounds in biological …, 2011).

By UniProt entry, the sequences of proteins in these tests, tags left out.
UniProt P08684, whole entry: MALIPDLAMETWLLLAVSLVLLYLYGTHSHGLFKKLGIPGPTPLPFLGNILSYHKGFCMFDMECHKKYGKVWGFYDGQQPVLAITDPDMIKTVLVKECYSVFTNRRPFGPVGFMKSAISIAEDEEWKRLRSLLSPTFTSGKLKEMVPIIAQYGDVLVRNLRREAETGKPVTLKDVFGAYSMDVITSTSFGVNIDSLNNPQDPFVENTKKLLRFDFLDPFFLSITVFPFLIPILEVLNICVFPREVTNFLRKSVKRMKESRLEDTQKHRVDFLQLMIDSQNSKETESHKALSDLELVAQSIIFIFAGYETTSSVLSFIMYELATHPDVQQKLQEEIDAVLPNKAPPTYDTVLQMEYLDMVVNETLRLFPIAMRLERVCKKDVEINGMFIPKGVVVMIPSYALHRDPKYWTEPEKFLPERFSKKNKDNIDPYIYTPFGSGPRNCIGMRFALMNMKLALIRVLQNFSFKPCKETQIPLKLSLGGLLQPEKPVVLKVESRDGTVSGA

The target of the data set is CYP3A4 (Homo sapiens, UniProt P08684). In words: Midazolam 1'-hydroxylation. The note with it: for % inhibition (10 µM) of CYP3A4: average of triplicates ± S.D.; for IC50: read-out: IC50 CYP3A4. In kind it is in vitro ADME.

Marks after values point to notes of the source that are not given here.

In the case of Cimicifugoside M [Compound 18], the “% inhibition (10 µM) of CYP3A4” value was determined as 65.8±0.5% and the IC50 is 4.3 ± 0.3 µM.

In the case of “23-O-acetylshengmanol-3-α-L-arabinopyranoside (23R) [Compound 2]”, the “% inhibition (10 µM) of CYP3A4” value was 81.6±0.9 ^b % and the IC50 worked out at 2.3 ± 0.2 µM.

Regarding “23-O-acetylshengmanol-3-β-D-xylopyranoside [Compound 12]”, the “% inhibition (10 µM) of CYP3A4” value is given as 80.7±0.6% and the concentration for half-maximal inhibition (IC50) was found to be 2.7 ± 0.2 µM.

As usually defined, the IC50 is the concentration that inhibits the measured activity by half.
